Measurements taken from article PMC7188517.

Chains of the proteins cited; added tags and fusions are not shown. Residues count along the entry.
UniProt P00738, 162-406: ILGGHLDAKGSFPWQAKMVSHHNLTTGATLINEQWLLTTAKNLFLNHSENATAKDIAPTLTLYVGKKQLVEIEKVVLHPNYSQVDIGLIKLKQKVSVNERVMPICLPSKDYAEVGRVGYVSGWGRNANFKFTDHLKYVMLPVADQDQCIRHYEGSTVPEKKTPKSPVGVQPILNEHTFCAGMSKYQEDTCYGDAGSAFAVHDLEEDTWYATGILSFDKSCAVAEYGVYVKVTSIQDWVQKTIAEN
UniProt P00738, 19-160: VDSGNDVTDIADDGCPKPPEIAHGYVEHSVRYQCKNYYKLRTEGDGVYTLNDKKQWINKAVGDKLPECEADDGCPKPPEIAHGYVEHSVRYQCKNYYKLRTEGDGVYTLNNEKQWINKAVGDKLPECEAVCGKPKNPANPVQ

Experiments:
[1] = target: haemoglobin in cerebrospinal fluid of subarachnoid haemorrhage patients (human (endogenous in CSF of SAH patients)); experiment: UPLC with absorbance at 415 nm; CSF alone run on the column in a tris-saline mobile phase; Hb-Hp complexes told from uncomplexed Hb by retention time; peak areas quantified with a Hb standard curve
[2] = target: haemoglobin in cerebrospinal fluid of subarachnoid haemorrhage patients (human (endogenous in CSF of SAH patients)); experiment: UPLC with absorbance at 415 nm; CSF incubated with exogenous Hp in excess of Hb-binding stoichiometry, then run on the column in a tris-saline mobile phase; increase of the complexed Hb peak area

Substance | percent of Hb uncomplexed (not bound to Hp) in CSF, from third day onwards [1] | percent of uncomplexed Hb that formed a complex with Hp, day 11-13 plateau [2] | percent of uncomplexed Hb that formed a complex with Hp, from the third day onwards [2]
endogenous haptoglobin in cerebrospinal fluid (from UniProt P00738 19-160; P00738 162-406) (natural protein) | 96.3% |  | 
haptoglobin (Bio Products Laboratory Limited) (from UniProt P00738 19-160; P00738 162-406) (natural protein) |  | 76.4% | 90.6%
